Test results as given in patent US20070167377A1, “Inhibitors of glycinamide ribonucleotide transformylase” (priority 2002, published 2007).

Molecular target: T1, recombinant human GAR Tfase (rhGAR Tfase) (Homo sapiens, UniProt P22102)
T1 construct: includes residues 808-1010 from the human trifunctional enzyme (purD-purM-purN); hexa-histidine (C); made in house; host or cells: E. coli BL21 (DE3) Gold, pet22b vector
T1 sequence (P22102 808-1010): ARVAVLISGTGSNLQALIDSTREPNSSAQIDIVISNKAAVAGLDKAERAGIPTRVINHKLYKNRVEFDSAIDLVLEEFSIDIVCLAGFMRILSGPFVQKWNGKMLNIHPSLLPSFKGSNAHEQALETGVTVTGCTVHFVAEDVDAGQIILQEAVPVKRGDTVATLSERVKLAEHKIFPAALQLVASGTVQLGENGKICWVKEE
Assay: Recombinant human GAR Tfase inhibition
Type: biochemical

Question: How did the Ki turn out when Nc1nc(N)c(CCCC(C(=O)C(F)(F)F)c2ccc(C(=O)N[C@@H](CCC(=O)O)C(=O)O)cc2)c(=O)[nH]1 (stereo partly drawn) [Compound 101, N-{4-[4-(2,4-Diamino-6-oxo-1,6-dihydropyrimidin-5-yl)-1-(2,2,2-trifluoroacetyl)butyl]benzoyl}-L-glutamic acid] was run?
Answer: 15 nM
